Among the data in BindingDB's records for doi:10.1124/jpet.105.092155 (Acadia Pharmaceuticals, 2005) are Ki values, retold here.

Chains of the proteins cited; added tags and fusions are not shown.
UniProt P14416, whole entry: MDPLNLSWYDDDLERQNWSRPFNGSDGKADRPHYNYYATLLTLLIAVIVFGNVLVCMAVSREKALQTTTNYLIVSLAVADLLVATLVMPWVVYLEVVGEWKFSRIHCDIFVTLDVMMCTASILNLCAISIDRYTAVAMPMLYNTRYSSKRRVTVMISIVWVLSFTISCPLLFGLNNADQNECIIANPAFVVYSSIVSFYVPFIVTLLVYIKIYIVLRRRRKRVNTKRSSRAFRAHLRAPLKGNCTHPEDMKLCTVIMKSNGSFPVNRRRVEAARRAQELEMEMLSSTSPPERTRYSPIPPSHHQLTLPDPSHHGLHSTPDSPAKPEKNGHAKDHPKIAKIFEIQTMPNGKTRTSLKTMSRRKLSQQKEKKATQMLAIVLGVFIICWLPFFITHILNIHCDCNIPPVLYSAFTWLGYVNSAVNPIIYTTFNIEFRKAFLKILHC

The target in the experiment is D(2) dopamine receptor (Homo sapiens, UniProt P14416).

Broadly, the Ki is the dissociation constant of the complex between target and ligand, obtained from inhibition or displacement. Lower therefore signals a stronger hold on the target.

Structures are written as SMILES. Where “and” joins values, the source holds several entries; their conditions need not be identical. Equal values may be shown once.

In the case of `CCN1CCCC1CNC(=O)c1c(O)c(Cl)cc(Cl)c1OC` (stereo unspecified) [3,5-Dichloro-N-(1-ethyl-pyrrolidin-2-ylmethyl)-2-hydroxy-6-methoxy-benzamide(Raclopride)], the Ki is 2.4 nM and 0.5 nM.
